Test results from article PMC7281072 (Cancers, 2020).

Experiments:
[1] = test system: SKOV-3 human ovarian adenocarcinoma xenograft; assay: SK-OV-3 human ovarian xenograft antitumor efficacy; for MST (mean survival time): test concentration or dose not given here; for TI% (Tumor Inhibition): test concentration or dose not given here; type: in vivo, CB17 SCID mice; settings: SKOV-3 xenograft, single i.p. LD10 dose on d-1
CB17 SCID mice = assay: Acute toxicity after single i.p. injection; settings: observed 30 days

## O=C(O)CCOc1ccc(N(CCCl)CCCl)cc1
[1]
  Cures (mice alive for 120 days after tumor inoculation): 0/5
  MST (mean survival time): 47.7 ± 1.5 days
  T/C% (mean survival time of treated versus saline controls): 117.2%
  TI% (Tumor Inhibition): 12.0%
CB17 SCID mice
  LD10: 15 mg/kg
  LD50: 20 mg/kg
